Measured values: paper PMC6747129 (International Journal of Molecular Sciences, 2019)

Sequences of proteins named here, by UniProt entry; tags and fusion partners are left off.
UniProt P08684, whole entry: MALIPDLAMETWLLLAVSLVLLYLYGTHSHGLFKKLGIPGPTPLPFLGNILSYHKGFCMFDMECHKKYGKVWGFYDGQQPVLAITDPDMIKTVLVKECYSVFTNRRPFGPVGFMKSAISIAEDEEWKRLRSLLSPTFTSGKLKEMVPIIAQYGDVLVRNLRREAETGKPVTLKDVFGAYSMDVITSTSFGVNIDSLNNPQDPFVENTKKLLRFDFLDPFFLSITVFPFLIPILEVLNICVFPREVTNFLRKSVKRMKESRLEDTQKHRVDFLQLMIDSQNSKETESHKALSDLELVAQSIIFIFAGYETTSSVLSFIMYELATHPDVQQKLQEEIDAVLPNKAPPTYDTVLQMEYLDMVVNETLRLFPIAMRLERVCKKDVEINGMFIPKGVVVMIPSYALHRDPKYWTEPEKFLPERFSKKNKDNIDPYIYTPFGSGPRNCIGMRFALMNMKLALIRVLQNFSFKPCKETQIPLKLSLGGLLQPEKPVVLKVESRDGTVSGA

Target: CYP3A4 (Homo sapiens, UniProt P08684)
Conditions: pH 7.4

Question: Which “High-Spin Shift” value does the source give for bromocryptine here?
Answer: 90%

Question: What about the Kd of the same substance?
Answer: 430 ± 80 nM
